Experimental findings from patent US6767533B1, “Use of a substance binding with the peripheral benzodiazepin receptor for treating skin stress” (Sanofi-Synthelabo, priority 1998, dated 2004) are described below.

Sequences of proteins named here, by UniProt entry; tags and fusion partners are left off.
UniProt P30536, whole entry: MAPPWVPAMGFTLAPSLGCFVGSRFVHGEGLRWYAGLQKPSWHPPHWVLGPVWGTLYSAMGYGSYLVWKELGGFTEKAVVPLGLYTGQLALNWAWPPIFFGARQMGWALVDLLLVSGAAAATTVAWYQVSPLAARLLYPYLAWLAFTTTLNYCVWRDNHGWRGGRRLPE

The target of this assay is T1, peripheral benzodiazepine receptor (PBR) (Homo sapiens, UniProt P30536).
T1 construct: the peripheral receptor borne by the keratinocytes; host or cells: A-431 human epidermoid carcinoma keratinocyte line
The experiment in a line: Binding studies on keratinocyte line A-431 by displacement of [3H]-PK11195. In general terms: In a radioligand displacement assay an active substance lowers the binding of a labelled ligand.

As to `CCC(C)N(C)C(=O)c1cc2ccccc2c(-c2ccccc2Cl)n1` (stereo not shown) [[^3H]-PK11195], the Kd (commonly the equilibrium constant for the complex coming apart) is 1.5 nM.
